The target of assay [1] is mu opioid receptor (Homo sapiens, UniProt P35372). The assay is described as follows: Filtration binding assay: mu opioid receptor.
Assay [2] concerns the target kappa opioid receptor (Homo sapiens, UniProt P41145). The assay is described as follows: Filtration binding assay: kappa opioid receptor. Particulars: read-out: Kappa Ki; value followed by notation Ki.
In assay [3] the target is delta opioid receptor (Homo sapiens, UniProt P41143). The assay is described as follows: Filtration binding assay: delta opioid receptor. Particulars: read-out: Delta Ki; value followed by notation Ki.

Amino acid sequences for entries named in this document (tags omitted).
UniProt P35372, whole entry: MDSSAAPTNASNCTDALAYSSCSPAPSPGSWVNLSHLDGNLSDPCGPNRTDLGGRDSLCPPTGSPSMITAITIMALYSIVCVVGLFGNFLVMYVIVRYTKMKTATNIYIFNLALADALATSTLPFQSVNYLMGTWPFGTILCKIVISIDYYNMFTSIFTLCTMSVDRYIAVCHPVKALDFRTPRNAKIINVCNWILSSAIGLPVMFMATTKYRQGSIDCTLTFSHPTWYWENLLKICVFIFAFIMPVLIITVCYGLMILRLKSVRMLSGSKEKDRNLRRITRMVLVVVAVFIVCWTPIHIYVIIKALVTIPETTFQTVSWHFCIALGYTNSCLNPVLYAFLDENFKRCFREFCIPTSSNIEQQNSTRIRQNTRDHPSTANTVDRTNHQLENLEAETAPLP
UniProt P41145, whole entry: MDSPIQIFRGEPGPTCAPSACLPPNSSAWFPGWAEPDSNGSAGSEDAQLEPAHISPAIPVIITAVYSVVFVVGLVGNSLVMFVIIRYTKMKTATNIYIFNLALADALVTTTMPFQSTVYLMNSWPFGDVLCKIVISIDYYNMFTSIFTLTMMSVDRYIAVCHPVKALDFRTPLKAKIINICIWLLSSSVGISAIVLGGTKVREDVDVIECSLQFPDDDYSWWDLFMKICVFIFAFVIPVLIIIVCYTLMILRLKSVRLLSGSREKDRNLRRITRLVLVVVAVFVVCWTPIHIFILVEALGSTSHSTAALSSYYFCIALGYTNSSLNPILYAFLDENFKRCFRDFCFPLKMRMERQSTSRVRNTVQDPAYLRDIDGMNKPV
UniProt P41143, whole entry: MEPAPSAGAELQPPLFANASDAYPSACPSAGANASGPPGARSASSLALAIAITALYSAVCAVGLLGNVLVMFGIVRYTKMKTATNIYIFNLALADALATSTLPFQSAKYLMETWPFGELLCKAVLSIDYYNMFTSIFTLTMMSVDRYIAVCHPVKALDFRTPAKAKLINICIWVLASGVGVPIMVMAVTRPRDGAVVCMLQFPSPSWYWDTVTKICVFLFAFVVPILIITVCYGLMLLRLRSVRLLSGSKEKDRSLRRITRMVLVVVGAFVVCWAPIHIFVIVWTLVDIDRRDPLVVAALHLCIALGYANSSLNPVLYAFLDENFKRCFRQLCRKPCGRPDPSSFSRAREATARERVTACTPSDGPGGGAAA

Molecules are shown by their SMILES.

As for `Cc1c(C(C)N2CCC3(CC2)C(=O)NCN3c2ccc(F)cc2)sc2ccccc12` (stereo not shown), the Ki in assay [1] (read-out: Mu Ki, value followed by notation Ki) turned out to be 3 nM; in assay [2], 10 nM; in assay [3], 350 nM.

Turning to `Cc1cccc(SC[C@H](O)CN2CN(c3ccccc3)C3(CCN(CCc4ccccc4-c4cccs4)CC3)C2=O)c1`, the IC50 in assay [1] (read-out: Mu IC50, mean where tested more than once) came to 3 nM.

Values taken from US7582649B2, “Hydroxy alkyl substituted 1,3,8-triazaspiro[4.5]decan-4-one derivatives useful for the treatment of ORL-1 receptor mediated disorders” (Janssen Pharmaceutica, NV, priority 2002, dated 2009).
